{"source": "patent US9856499B2", "about": "“Long chain organic acid bioproduction” (dated 2018)", "key": {"[1]": {"tested_on": "C. acetobutylicum M5", "test": "Metabolites of cultures before and after TNT addition (gas chromatography), strain M5", "description": "(§1) Cell growth was monitored by A600 with a Beckman DU-800 spectrophotometer. On fermentor, cell growth was monitored by a cell density sensor. The concentrations of butanol, acetone, ethanol, butyrate, and acetate were determined using gas chromatography with a Hewlett-Packard 5890 Series II instrument (Hewlett-Packard Company, Palo Alto, Calif.) as described previously (Scotcher and Bennett 2005; Zhao et al. 2003; Zhao et al. 2005). Glucose was measured by HPLC as described (Wang et al. 2011).\n(§2) We measured the acid metabolites formed during the time after TNT addition. A culture of C. acetobutylicum grown under the conditions where the TNT degradation rate was analyzed was processed and subjected to gas chromatography to determine the metabolites present in the pre-TNT added culture and in the culture 1 hour after the TNT addition, a time when the starting TNT had been depleted. The culture continued to grow during this time and the metabolism of glucose continued during the 1 hour period and seemed unchanged in rate as judged by the total production of acids during this time."}, "[2]": {"tested_on": "C. acetobutylicum 824", "test": "Metabolites of cultures before and after TNT addition (gas chromatography), strain 824", "description": "as §1, §2"}, "[3]": {"tested_on": "C. acetobutylicum ATCC 824", "test": "Hydrogen production / H2/CO2 ratio and reductant distribution on TNT addition", "description": "TNT can act as an alternative electron acceptor for the hydrogenase enzyme, so the effect of TNT addition on H2 production in cultures during exponential growth was determined by measuring the H2/CO2 ratio.\nThe detailed redox calculations shown in Table 3 analyzes the redistribution of reductant from production of hydrogen to more production of butyrate during the time when TNT was present and being reduced. The level of TNT present (400 μM) would not consume much of the reductant available directly in this experiment, and the amount would be expected to be 1 mM or less based on the early reduction steps of TNT under these conditions as analyzed previously (Ahmad and Hughes 2000; Khan et al. 1997; Padda et al. 2000).\nCalculations of the observed reductant consumed in the formation of acids either before or during TNT transformation and the resulting reducing equivalents available for formation of hydrogen give values of 1.30 for the hydrogen/CO2 ratio before TNT addition and 1.05-1.12 during TNT degradation. These values are very close to the values measured experimentally (not shown), before TNT addition of 1.36 and during TNT degradation of 1.18.\nIf the data are presented in a form where the fraction of total reductant formed from glucose metabolism, i.e. reduced ferredoxin and NADH, that goes to either formation of hydrogen or butyrate is calculated, we can analyze the proportion of reductant that is consumed in butyrate formation in the culture during the one hour period before TNT addition and it is 35% of the total reductant. If the same calculation is done on the culture during the one hour period of TNT degradation a proportion of 44-47% of total reductant that goes into formation of butyrate is determined."}, "[4]": {"tested_on": "C. acetobutylicum", "test": "TNT assay in C. acetobutylicum culture (TNT degradation rate)", "description": "TNT concentration in the culture medium was followed by a spectrometric protocol modified from Jenkins et al (Jenkins and Walsh 1992; Watrous et al. 2003). Freshly made sodium sulfite solution (0.2 g/mL) in 50 mM pH 8.0 Tris-HCl buffer reacts with TNT solution to form a colored complex with maximum absorption at A414 that remains stable for hours under assay conditions. A414 readings increase linearly up to a 500 μM TNT concentration.\nSingle C. acetobutylicum colonies from freshly grown plates were inoculated into buffered CGM medium with appropriate antibiotics and incubated overnight as seed cultures. An appropriate amount from seed culture was used for the subculture to yield a starting A600 of 0.1. The culture was incubated at 37° C. and growth (A600) measured periodically. TNT degradation rate was assayed during early-exponential phase (A600 0.3), mid-exponential phase (A600 1.0) and stationary phase (24 hour culture with A600 varied) by diluting the culture at different times into fresh medium containing 400 μM TNT. […]\nIn order to determine the effect of culture dilution on TNT degradation and confirm the linear range of the measurements, five C. acetobutylicum cultures were prepared to ultimately yield 10×, 20×, 30×, 40×, and 50× dilutions respectively. […] Once the three time samples were collected and centrifuged at 13000 rpm for 10 minutes, the A414 absorbance of each supernatant was measured, and the dilution factors were considered to calculate the specific TNT degradation rates. Since the time of the initial rate measurement was short after the dilution compared to a typical lag phase recovery of growth rate the measured rates are considered indicative of the metabolism of the cell at the time points used.\nA simplified Jenkins TNT assay protocol was adapted in our experiments. […] The measured TNT concentration in the culture declined with time during the assay, and the rate of decrease had diminished considerably after 1 hr.\nTherefore the maximal specific TNT degradation rate as measured by this method was used in the figures and tables. […]"}, "[5]": {"tested_on": "C. acetobutylicum", "settings": "Exp. 6-7, taken from outside literature, cultures A=1.0; cited from earlier work"}, "[6]": {"tested_on": "C. acetobutylicum", "test": "Redox potential of the culture on TNT addition", "settings": "addition to cultures in exponential growth", "text": "We found TNT addition alters the redox potential of the culture. […] This initial spike was followed by a persistent increase in the redox potential of the cultures receiving TNT when compared to the redox level of the control culture."}, "[7]": {"settings": "M5, during TNT (formed over the period)"}, "[8]": {"settings": "824, during TNT (formed over the period)"}}, "note": "Where two headings read alike, the source gives them in different places. Only a part of the results on these compounds is given; other tests are left out.", "data": [{"smiles": "Cc1c([N+](=O)[O-])cc([N+](=O)[O-])cc1[N+](=O)[O-]", "values": [{"measurement": "Acetate", "setting": "[1]; M5, 1 hr post TNT", "result": 4.53, "unit": "mM"}, {"measurement": "Acetone", "setting": "[1]; M5, 1 hr post TNT", "result": 0, "unit": "mM"}, {"measurement": "Butanol", "setting": "[1]; M5, 1 hr post TNT", "result": 0, "unit": "mM"}, {"measurement": "Butyrate", "setting": "[1]; M5, 1 hr post TNT", "result": 11.37, "unit": "mM"}, {"measurement": "Ethanol", "setting": "[1]; M5, 1 hr post TNT", "result": 0, "unit": "mM"}, {"measurement": "Acetate", "setting": "[1]; [7]", "result": 0.82, "unit": "mM"}, {"measurement": "Acetone", "setting": "[1]; [7]", "result": 0, "unit": "mM"}, {"measurement": "Butanol", "setting": "[1]; [7]", "result": 0, "unit": "mM"}, {"measurement": "Butyrate", "setting": "[1]; [7]", "result": 7.05, "unit": "mM"}, {"measurement": "Ethanol", "setting": "[1]; [7]", "result": 0, "unit": "mM"}, {"measurement": "Acetate", "setting": "[2]; 824, 1 hr post TNT", "result": 5.39, "unit": "mM"}, {"measurement": "Acetone", "setting": "[2]; 824, 1 hr post TNT", "result": 0.03, "unit": "mM"}, {"measurement": "Butanol", "setting": "[2]; 824, 1 hr post TNT", "result": 0, "unit": "mM"}, {"measurement": "Butyrate", "setting": "[2]; 824, 1 hr post TNT", "result": 10.11, "unit": "mM"}, {"measurement": "Ethanol", "setting": "[2]; 824, 1 hr post TNT", "result": 0.29, "unit": "mM"}, {"measurement": "Acetate", "setting": "[2]; [8]", "result": 1.63, "unit": "mM"}, {"measurement": "Acetone", "setting": "[2]; [8]", "result": 0, "unit": "mM"}, {"measurement": "Butanol", "setting": "[2]; [8]", "result": 0, "unit": "mM"}, {"measurement": "Butyrate", "setting": "[2]; [8]", "result": 5.8, "unit": "mM"}, {"measurement": "Ethanol", "setting": "[2]; [8]", "result": 0.06, "unit": "mM"}, {"measurement": "metabolic pattern after TNT addition (butyrate, acetate)", "setting": "[2]; variety of Clostridia cultures", "result": "more butyrate and less acetate"}, {"measurement": "effect on hydrogen production", "setting": "[3]; cultures during exponential growth", "result": "decrease of hydrogen production"}, {"measurement": "hydrogen/CO2 ratio (measured experimentally)", "setting": "[3]; during TNT degradation", "result": 1.18}, {"measurement": "hydrogen/CO2 ratio (calculated from reductant consumed in acids)", "setting": "[3]; during TNT degradation, 400 μM TNT", "result": "1.05-1.12"}, {"measurement": "proportion of total reductant that goes into formation of butyrate", "setting": "[3]; one hour period of TNT degradation", "result": "44-47%"}, {"measurement": "TNT degradation rate", "setting": "[4]; ATCC824, series of five culture experiments", "result": 15.2, "unit": "mM/h/A600"}, {"measurement": "TNT deg. Rate", "setting": "[4]; Exp. 1-5, cultures A=0.3", "result": 15.2, "unit": "mM/Hour/A600"}, {"measurement": "initial TNT degradation rate", "setting": "[4]; all strains tested, early exponential phase (A600 0.3), 400 μM TNT", "result": "10,000-12,000 μM/Hour/A600"}, {"measurement": "TNT deg. Rate", "setting": "[5]", "result": 2.0, "unit": "mM/Hour/A600"}, {"measurement": "effect on redox potential of the culture", "setting": "[6]", "result": "dose dependent spike in the redox potential"}]}]}
